Results as given in patent publication US6117878A, “8-phenyl- or 8-cycloalkyl xanthine antagonists of A2B human adenosine receptors” (priority 1998, dated 2000).

Assays:
[1] = biological target: T1, recombinant human A2B adenosine receptors (Homo sapiens, UniProt P29275); assay: Competition binding screen, A2B (Table 1); set-up: expressed in transfected cells; host or cells: cells expressing the recombinant receptor
T1 sequence (P29275 1-332): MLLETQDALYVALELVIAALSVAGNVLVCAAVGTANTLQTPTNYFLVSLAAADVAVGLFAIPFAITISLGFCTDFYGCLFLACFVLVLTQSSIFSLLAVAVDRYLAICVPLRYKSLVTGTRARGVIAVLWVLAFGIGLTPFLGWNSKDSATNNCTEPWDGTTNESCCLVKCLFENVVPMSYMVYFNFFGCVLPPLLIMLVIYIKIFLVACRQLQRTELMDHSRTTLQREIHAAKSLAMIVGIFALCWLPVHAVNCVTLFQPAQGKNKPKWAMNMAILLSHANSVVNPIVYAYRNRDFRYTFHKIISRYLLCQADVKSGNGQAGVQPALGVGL
From the text: This was done in competition binding assays using recombinant human A1, A2A, A2B or A3 adenosine receptors, similar to that illustrated in FIGS. 2A and 2B.

[2] = test system: adenosine receptors; conditions: enprofylline: therapeutic concentration range of 20-50 uM, examined at A1 and A2A only; cited from earlier work

Structure (SMILES) | Potency as antagonist of human A2B adenosine receptors relative to enprofylline ([1]; BW-A493 versus enprofylline) | A2B selectivity / antagonism (in words) ([1]; human A2B versus other adenosine receptors) | Block of adenosine receptors (literature) [2]
O=C(O)C=Cc1ccc(-c2nc3c([nH]2)c(=O)n(CC2CCCCC2)c(=O)n3CC2CCCCC2)cc1 [BW-A493] | approximately 35 times | potent and selective antagonist of human A2B adenosine receptors | –
Cn1c(=O)c2[nH]cnc2n(C)c1=O [theophylline] | – | – | known to block adenosine receptors
